{"sequences": {"note": "By UniProt entry, the sequences of proteins in these tests, tags left out. Where a name states a change or a piece, a line headed by the entry shows the natural chain unless it says otherwise.", "UniProt P28335": "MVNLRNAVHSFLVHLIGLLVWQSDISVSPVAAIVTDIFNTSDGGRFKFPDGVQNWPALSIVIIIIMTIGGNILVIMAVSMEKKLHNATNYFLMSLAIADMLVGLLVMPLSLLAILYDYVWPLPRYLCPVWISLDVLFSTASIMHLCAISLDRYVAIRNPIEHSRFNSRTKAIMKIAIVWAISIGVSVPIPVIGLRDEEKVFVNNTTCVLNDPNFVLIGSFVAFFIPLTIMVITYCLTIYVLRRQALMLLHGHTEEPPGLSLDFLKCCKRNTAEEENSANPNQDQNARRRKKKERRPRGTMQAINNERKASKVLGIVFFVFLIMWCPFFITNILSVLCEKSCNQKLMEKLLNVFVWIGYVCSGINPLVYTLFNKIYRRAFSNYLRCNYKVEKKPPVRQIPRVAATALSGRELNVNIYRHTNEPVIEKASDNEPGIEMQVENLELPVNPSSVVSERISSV", "UniProt P41595, whole entry": "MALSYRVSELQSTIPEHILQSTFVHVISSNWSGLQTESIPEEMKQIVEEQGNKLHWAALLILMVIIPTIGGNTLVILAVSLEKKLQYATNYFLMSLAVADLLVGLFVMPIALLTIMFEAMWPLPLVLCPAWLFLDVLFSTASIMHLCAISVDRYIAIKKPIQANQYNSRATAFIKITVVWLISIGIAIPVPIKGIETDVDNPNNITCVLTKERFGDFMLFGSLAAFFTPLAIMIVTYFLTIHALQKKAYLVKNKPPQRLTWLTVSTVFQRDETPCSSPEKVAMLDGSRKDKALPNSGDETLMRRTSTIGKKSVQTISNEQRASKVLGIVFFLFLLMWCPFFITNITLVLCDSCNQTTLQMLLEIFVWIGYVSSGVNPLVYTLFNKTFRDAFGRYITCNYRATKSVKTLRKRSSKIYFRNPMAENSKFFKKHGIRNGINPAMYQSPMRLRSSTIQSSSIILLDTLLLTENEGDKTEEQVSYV", "UniProt P28223, whole entry": "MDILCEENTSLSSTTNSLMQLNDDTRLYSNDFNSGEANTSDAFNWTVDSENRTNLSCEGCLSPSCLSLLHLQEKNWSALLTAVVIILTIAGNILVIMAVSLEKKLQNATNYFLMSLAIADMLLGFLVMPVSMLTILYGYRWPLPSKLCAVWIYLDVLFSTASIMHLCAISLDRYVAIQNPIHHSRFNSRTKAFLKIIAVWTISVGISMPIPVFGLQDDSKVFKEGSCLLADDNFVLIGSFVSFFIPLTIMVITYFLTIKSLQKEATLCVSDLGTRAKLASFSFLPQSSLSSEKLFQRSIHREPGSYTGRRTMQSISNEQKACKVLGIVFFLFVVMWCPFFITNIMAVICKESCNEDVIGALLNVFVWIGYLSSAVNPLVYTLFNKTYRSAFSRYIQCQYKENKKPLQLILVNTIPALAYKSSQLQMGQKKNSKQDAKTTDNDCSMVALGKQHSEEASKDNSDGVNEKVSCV"}, "source": "ChEMBL document CHEMBL1140712", "about": "(J Med Chem, 2008)", "format_in_all_cases": "functional, cell-based", "key": {"[1]": {"molecular_target": "5-hydroxytryptamine receptor 2C (Homo sapiens, UniProt P28335)", "assay": "Agonist activity at human 5HT2C receptor expressed in HEK293 cells assessed as intracellular IP3 accumulation", "in_short": "(§1)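 Functional agonist assay read out as [3H]phosphoinositol turnover; potency expressed as pEC50.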"}, "[2]": {"molecular_target": "5-hydroxytryptamine receptor 2B (Homo sapiens, UniProt P41595)", "assay": "Agonist activity at human 5HT2B receptor expressed in HEK293 cells assessed as intracellular IP3 accumulation", "in_short": "as §1"}, "[3]": {"molecular_target": "5-hydroxytryptamine receptor 2A (Homo sapiens, UniProt P28223)", "assay": "Agonist activity at human 5HT2A receptor expressed in HEK293 cells assessed as intracellular IP3 accumulation", "in_short": "as §1"}}, "data": [{"molecule": "Clc1cccc(N2CCNCC2)c1", "note": "[CHLOROPHENYLPIPERAZINE]", "values": [{"measurement": "EC50", "setting": "[1]", "value": 7.94, "unit": "nM"}, {"measurement": "EC50", "setting": "[2]", "value": 39.8, "unit": "nM"}, {"measurement": "EC50", "setting": "[3]", "value": 63.1, "unit": "nM"}]}]}
